According to ChEMBL document CHEMBL1649552 (2009):

Legend:
Assay type in all cases: functional
Staphylococcus aureus [1] = experiment: Antibacterial activity against methicillin-susceptible Staphylococcus aureus by CLSI M100-S17 method
Staphylococcus aureus [2] = experiment: Antibacterial activity against methicillin-resistant Staphylococcus aureus by CLSI M100-S17 method
[3] = tested on: Staphylococcus epidermidis; experiment: Antibacterial activity against methicillin-susceptible Staphylococcus epidermidis by CLSI M100-S17 method
[4] = tested on: Staphylococcus epidermidis; experiment: Antibacterial activity against methicillin-resistant Staphylococcus epidermidis by CLSI M100-S17 method
Escherichia coli = experiment: Antibacterial activity against Escherichia coli by CLSI M100-S17 method
Klebsiella pneumoniae = experiment: Antibacterial activity against Klebsiella pneumoniae by CLSI M100-S17 method
Klebsiella oxytoca = experiment: Antibacterial activity against Klebsiella oxytoca by CLSI M100-S17 method
Enterobacter cloacae = experiment: Antibacterial activity against Enterobacter cloacae by CLSI M100-S17 method
Proteus mirabilis = experiment: Antibacterial activity against Proteus mirabilis by CLSI M100-S17 method
Serratia marcescens = experiment: Antibacterial activity against Serratia marcescens by CLSI M100-S17 method
Pseudomonas aeruginosa = experiment: Antibacterial activity against Pseudomonas aeruginosa by CLSI M100-S17 method
[5] = tested on: Stenotrophomonas maltophilia; experiment: Antibacterial activity against Stenotrophomonas maltophilia by CLSI M100-S17 method
Acinetobacter baumannii = experiment: Antibacterial activity against Acinetobacter baumannii by CLSI M100-S17 method
Moraxella catarrhalis = experiment: Antibacterial activity against Moraxella catarrhalis by CLSI M100-S17 method

Sequence: GENTAMICIN
- MIC50 (Staphylococcus aureus [1]): < 0.5 µg/mL
- MIC (Staphylococcus aureus [2]): 0.5 µg/mL
- MIC50 (Staphylococcus aureus [2]): < 0.5 µg/mL
- MIC50 [3]: < 0.5 µg/mL
- MIC [4]: 0.5 µg/mL
- MIC (Escherichia coli): 0.5 µg/mL
- MIC50 (Escherichia coli): < 0.5 µg/mL
- MIC (Klebsiella pneumoniae): 0.5 µg/mL
- MIC50 (Klebsiella pneumoniae): < 0.5 µg/mL
- MIC90 (Klebsiella pneumoniae): < 0.5 µg/mL
- MIC (Klebsiella oxytoca): 0.5 µg/mL
- MIC50 (Klebsiella oxytoca): < 0.5 µg/mL
- MIC90 (Klebsiella oxytoca): < 0.5 µg/mL
- MIC (Enterobacter cloacae): 0.5 µg/mL
- MIC50 (Enterobacter cloacae): < 0.5 µg/mL
- MIC (Proteus mirabilis): 0.5 µg/mL
- MIC (Serratia marcescens): 0.5 µg/mL
- MIC50 (Serratia marcescens): < 0.5 µg/mL
- MIC (Pseudomonas aeruginosa): 0.5 µg/mL
- MIC [5]: 0.5 µg/mL
- MIC (Acinetobacter baumannii): 0.5 µg/mL
- MIC50 (Acinetobacter baumannii): < 0.5 µg/mL
- MIC (Moraxella catarrhalis): < 0.5 µg/mL
- MIC50 (Moraxella catarrhalis): < 0.5 µg/mL
- MIC90 (Moraxella catarrhalis): < 0.5 µg/mL
